Laboratory results as given in ChEMBL document CHEMBL4680104, “Structure-Based Optimization of Small-Molecule Inhibitors for the β-Catenin/B-Cell Lymphoma 9 Protein-Protein Interaction” (J Med Chem, 2018).
One block for each compound: values may come before it.

By UniProt entry, the sequences of proteins in these tests, tags left out. Where a name states a change or a piece, a line headed by the entry shows the natural chain unless it says otherwise.
UniProt P35222: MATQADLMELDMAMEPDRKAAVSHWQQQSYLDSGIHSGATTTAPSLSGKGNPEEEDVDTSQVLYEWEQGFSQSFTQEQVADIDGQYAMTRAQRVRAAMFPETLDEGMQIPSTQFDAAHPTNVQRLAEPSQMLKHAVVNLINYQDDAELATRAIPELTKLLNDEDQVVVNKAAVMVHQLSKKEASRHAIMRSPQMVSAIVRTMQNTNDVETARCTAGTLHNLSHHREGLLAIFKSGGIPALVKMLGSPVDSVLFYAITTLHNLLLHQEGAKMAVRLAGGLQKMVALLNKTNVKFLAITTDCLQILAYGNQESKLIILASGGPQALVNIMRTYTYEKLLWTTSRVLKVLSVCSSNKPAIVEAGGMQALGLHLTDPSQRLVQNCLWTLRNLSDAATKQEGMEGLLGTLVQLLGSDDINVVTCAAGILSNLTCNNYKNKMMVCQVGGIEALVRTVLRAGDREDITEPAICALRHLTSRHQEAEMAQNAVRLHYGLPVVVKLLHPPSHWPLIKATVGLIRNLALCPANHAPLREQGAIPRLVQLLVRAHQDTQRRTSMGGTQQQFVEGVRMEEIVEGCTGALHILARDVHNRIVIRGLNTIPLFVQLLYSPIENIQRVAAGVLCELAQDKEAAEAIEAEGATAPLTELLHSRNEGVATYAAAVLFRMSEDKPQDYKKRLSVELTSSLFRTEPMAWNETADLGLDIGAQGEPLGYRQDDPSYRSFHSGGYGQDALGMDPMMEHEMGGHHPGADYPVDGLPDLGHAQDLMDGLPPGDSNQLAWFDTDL
UniProt O00512: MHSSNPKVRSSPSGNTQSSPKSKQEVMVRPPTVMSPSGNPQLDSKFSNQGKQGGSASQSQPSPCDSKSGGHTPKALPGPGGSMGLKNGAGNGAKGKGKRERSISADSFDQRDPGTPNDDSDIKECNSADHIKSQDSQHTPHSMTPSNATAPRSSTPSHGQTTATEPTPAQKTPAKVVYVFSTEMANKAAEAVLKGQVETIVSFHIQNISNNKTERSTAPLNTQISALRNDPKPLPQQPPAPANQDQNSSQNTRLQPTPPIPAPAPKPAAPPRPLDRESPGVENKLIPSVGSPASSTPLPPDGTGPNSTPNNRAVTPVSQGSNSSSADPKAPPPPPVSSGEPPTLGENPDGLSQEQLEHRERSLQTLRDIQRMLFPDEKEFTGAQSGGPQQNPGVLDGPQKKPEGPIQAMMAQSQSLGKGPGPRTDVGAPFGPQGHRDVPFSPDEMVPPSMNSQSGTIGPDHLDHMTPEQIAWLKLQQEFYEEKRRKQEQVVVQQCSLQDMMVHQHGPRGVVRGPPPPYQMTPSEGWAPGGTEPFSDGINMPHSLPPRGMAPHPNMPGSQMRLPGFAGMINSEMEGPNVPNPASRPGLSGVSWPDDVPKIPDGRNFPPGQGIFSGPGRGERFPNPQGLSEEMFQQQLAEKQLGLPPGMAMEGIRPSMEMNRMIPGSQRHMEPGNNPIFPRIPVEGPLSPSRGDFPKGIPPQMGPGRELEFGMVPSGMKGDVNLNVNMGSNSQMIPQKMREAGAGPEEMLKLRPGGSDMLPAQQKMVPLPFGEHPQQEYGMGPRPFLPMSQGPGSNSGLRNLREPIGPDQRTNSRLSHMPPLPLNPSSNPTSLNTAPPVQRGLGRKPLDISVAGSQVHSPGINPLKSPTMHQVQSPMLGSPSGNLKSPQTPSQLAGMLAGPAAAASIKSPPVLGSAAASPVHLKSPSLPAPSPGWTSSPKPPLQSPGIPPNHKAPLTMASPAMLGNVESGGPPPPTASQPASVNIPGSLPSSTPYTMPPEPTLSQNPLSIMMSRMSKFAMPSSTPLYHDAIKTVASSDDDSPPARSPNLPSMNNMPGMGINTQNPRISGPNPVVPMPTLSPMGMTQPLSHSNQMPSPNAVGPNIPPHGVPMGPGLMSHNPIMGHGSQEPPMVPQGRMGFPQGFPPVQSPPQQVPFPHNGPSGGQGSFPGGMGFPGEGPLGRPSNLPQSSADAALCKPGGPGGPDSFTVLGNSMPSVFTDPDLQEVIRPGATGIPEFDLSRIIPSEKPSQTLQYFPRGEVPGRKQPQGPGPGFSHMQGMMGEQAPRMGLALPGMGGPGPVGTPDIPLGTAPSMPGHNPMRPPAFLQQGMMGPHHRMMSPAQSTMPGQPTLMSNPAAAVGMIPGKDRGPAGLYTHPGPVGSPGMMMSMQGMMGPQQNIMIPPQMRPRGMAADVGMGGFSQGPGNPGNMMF

Experiments:
[1] = target: T1, beta-catenin-B-cell lymphoma 9 protein complex (Homo sapiens) (UniProt P35222+O00512); test: Inhibition of protein interaction between beta-catenin /BCL9 in human SW480 cells assessed as reduction in Wnt target genes by measuring change in Axin2 mRNA expression at 1 uM incubated for 24 hrs by qPCR analysis relative to control; format: cell-based
[2] = target: T1, beta-catenin-B-cell lymphoma 9 protein complex (Homo sapiens); test: Inhibition of protein interaction between beta-catenin /BCL9 in human SW480 cells assessed as reduction in Wnt target genes by measuring change in Axin2 mRNA expression at 2 uM incubated for 24 hrs by qPCR analysis relative to control; format: cell-based
[3] = target: T1, beta-catenin-B-cell lymphoma 9 protein complex (Homo sapiens); test: Inhibition of protein interaction between beta-catenin /BCL9 in human SW480 cells assessed as reduction in Wnt target genes by measuring change in Axin2 mRNA expression at 4 uM incubated for 24 hrs by qPCR analysis relative to control; format: cell-based
[4] = target: T1, beta-catenin-B-cell lymphoma 9 protein complex (Homo sapiens); test: Inhibition of protein interaction between beta-catenin /BCL9 in human SW480 cells assessed as reduction in Wnt target genes by measuring change in cyclin D1 mRNA expression at 1 uM incubated for 24 hrs by qPCR analysis relative to control; format: cell-based
[5] = target: T1, beta-catenin-B-cell lymphoma 9 protein complex (Homo sapiens); test: Inhibition of protein interaction between beta-catenin /BCL9 in human SW480 cells assessed as reduction in Wnt target genes by measuring change in cyclin D1 mRNA expression at 2 uM incubated for 24 hrs by qPCR analysis relative to control; format: cell-based
[6] = target: T1, beta-catenin-B-cell lymphoma 9 protein complex (Homo sapiens); test: Inhibition of protein interaction between beta-catenin /BCL9 in human SW480 cells assessed as reduction in Wnt target genes by measuring change in cyclin D1 mRNA expression at 4 uM incubated for 24 hrs by qPCR analysis relative to control; format: cell-based
[7] = target: T1, beta-catenin-B-cell lymphoma 9 protein complex (Homo sapiens); test: Inhibition of protein interaction between beta-catenin /BCL9 in human SW480 cells assessed as reduction in Wnt target genes by measuring change in LEF1 mRNA expression at 1 uM incubated for 24 hrs by qPCR analysis relative to control; format: cell-based
[8] = target: T1, beta-catenin-B-cell lymphoma 9 protein complex (Homo sapiens); test: Inhibition of protein interaction between beta-catenin /BCL9 in human SW480 cells assessed as reduction in Wnt target genes by measuring change in LEF1 mRNA expression at 2 uM incubated for 24 hrs by qPCR analysis relative to control; format: cell-based
[9] = target: T1, beta-catenin-B-cell lymphoma 9 protein complex (Homo sapiens); test: Inhibition of protein interaction between beta-catenin /BCL9 in human SW480 cells assessed as reduction in Wnt target genes by measuring change in LEF1 mRNA expression at 4 uM incubated for 24 hrs by qPCR analysis relative to control; format: cell-based
Homo sapiens = species on record: Homo sapiens; test: Selectivity index, ratio of Ki for inhibition of protein interaction between beta-catenin (unknown origin)/human E-cadherin to Ki for inhibition of protein interaction between beta-catenin (unknown origin)/human BCL9
[10] = target: T1, beta-catenin-B-cell lymphoma 9 protein complex (Homo sapiens); test: Inhibition of protein interaction between beta-catenin /BCL9 in human SW480 cells assessed as reduction in Wnt target genes by measuring change in Axin2 mRNA expression at 25 uM incubated for 24 hrs by qPCR analysis relative to control; format: cell-based
[11] = target: T1, beta-catenin-B-cell lymphoma 9 protein complex (Homo sapiens); test: Inhibition of protein interaction between beta-catenin /BCL9 in human SW480 cells assessed as reduction in Wnt target genes by measuring change in Axin2 mRNA expression at 50 uM incubated for 24 hrs by qPCR analysis relative to control; format: cell-based
[12] = target: T1, beta-catenin-B-cell lymphoma 9 protein complex (Homo sapiens); test: Inhibition of protein interaction between beta-catenin /BCL9 in human SW480 cells assessed as reduction in Wnt target genes by measuring change in Axin2 mRNA expression at 100 uM incubated for 24 hrs by qPCR analysis relative to control; format: cell-based
[13] = target: T1, beta-catenin-B-cell lymphoma 9 protein complex (Homo sapiens); test: Inhibition of protein interaction between beta-catenin /BCL9 in human SW480 cells assessed as reduction in Wnt target genes by measuring change in cyclin D1 mRNA expression at 25 uM incubated for 24 hrs by qPCR analysis relative to control; format: cell-based
[14] = target: T1, beta-catenin-B-cell lymphoma 9 protein complex (Homo sapiens); test: Inhibition of protein interaction between beta-catenin /BCL9 in human SW480 cells assessed as reduction in Wnt target genes by measuring change in cyclin D1 mRNA expression at 50 uM incubated for 24 hrs by qPCR analysis relative to control; format: cell-based
[15] = target: T1, beta-catenin-B-cell lymphoma 9 protein complex (Homo sapiens); test: Inhibition of protein interaction between beta-catenin /BCL9 in human SW480 cells assessed as reduction in Wnt target genes by measuring change in cyclin D1 mRNA expression at 100 uM incubated for 24 hrs by qPCR analysis relative to control; format: cell-based
[16] = target: T1, beta-catenin-B-cell lymphoma 9 protein complex (Homo sapiens); test: Inhibition of protein interaction between beta-catenin /BCL9 in human SW480 cells assessed as reduction in Wnt target genes by measuring change in LEF1 mRNA expression at 25 uM incubated for 24 hrs by qPCR analysis relative to control; format: cell-based
[17] = target: T1, beta-catenin-B-cell lymphoma 9 protein complex (Homo sapiens); test: Inhibition of protein interaction between beta-catenin /BCL9 in human SW480 cells assessed as reduction in Wnt target genes by measuring change in LEF1 mRNA expression at 50 uM incubated for 24 hrs by qPCR analysis relative to control; format: cell-based
[18] = target: T1, beta-catenin-B-cell lymphoma 9 protein complex (Homo sapiens); test: Inhibition of protein interaction between beta-catenin /BCL9 in human SW480 cells assessed as reduction in Wnt target genes by measuring change in LEF1 mRNA expression at 100 uM incubated for 24 hrs by qPCR analysis relative to control; format: cell-based
[19] = target: T1, beta-catenin-B-cell lymphoma 9 protein complex (Homo sapiens); test: Inhibition of protein interaction between beta-catenin /BCL9 in human SW480 cells assessed as reduction in Wnt target genes by measuring change in Axin2 mRNA expression at 5 uM incubated for 24 hrs by qPCR analysis relative to control; format: cell-based
[20] = target: T1, beta-catenin-B-cell lymphoma 9 protein complex (Homo sapiens); test: Inhibition of protein interaction between beta-catenin /BCL9 in human SW480 cells assessed as reduction in Wnt target genes by measuring change in Axin2 mRNA expression at 10 uM incubated for 24 hrs by qPCR analysis relative to control; format: cell-based
[21] = target: T1, beta-catenin-B-cell lymphoma 9 protein complex (Homo sapiens); test: Inhibition of protein interaction between beta-catenin /BCL9 in human SW480 cells assessed as reduction in Wnt target genes by measuring change in Axin2 mRNA expression at 20 uM incubated for 24 hrs by qPCR analysis relative to control; format: cell-based
[22] = target: T1, beta-catenin-B-cell lymphoma 9 protein complex (Homo sapiens); test: Inhibition of protein interaction between beta-catenin /BCL9 in human SW480 cells assessed as reduction in Wnt target genes by measuring change in Axin2 mRNA expression at 8 uM incubated for 24 hrs by qPCR analysis relative to control; format: cell-based
[23] = target: T1, beta-catenin-B-cell lymphoma 9 protein complex (Homo sapiens); test: Inhibition of protein interaction between beta-catenin /BCL9 in human SW480 cells assessed as reduction in Wnt target genes by measuring change in cyclin D1 mRNA expression at 8 uM incubated for 24 hrs by qPCR analysis relative to control; format: cell-based
[24] = target: T1, beta-catenin-B-cell lymphoma 9 protein complex (Homo sapiens); test: Inhibition of protein interaction between beta-catenin /BCL9 in human SW480 cells assessed as reduction in Wnt target genes by measuring change in LEF1 mRNA expression at 8 uM incubated for 24 hrs by qPCR analysis relative to control; format: cell-based

fold change (FC) [1]: 0.95
fold change (FC) [2]: 0.871
fold change (FC) [3]: 0.532
fold change (FC) [4]: 0.674
fold change (FC) [5]: 0.528
fold change (FC) [6]: 0.353
fold change (FC) [7]: 0.707
fold change (FC) [8]: 0.585
fold change (FC) [9]: 0.395
SMILES: Cl.Cl.O=C(Nc1ccc(O[C@H]2CCNC2)c(-c2ccc(F)cc2)c1)c1ccc(O[C@H]2CCNC2)c(-c2ccc3ccsc3c2)c1

Ratio Ki (Homo sapiens): > 570
SMILES: Cl.Cl.O=C(Nc1ccc(O[C@@H]2CCNC2)c(-c2cccc(-c3nn[nH]n3)c2)c1)c1ccc(O[C@H]2CCNC2)c(-c2ccc3ccsc3c2)c1

SMILES: Cl.Cl.O=C(Nc1ccc(O[C@@H]2CCNC2)c(-c2cccc(-c3nn[nH]n3)c2)c1)c1ccc(O[C@H]2CCNC2)c(-c2ccc(F)c(F)c2)c1
Ratio Ki (Homo sapiens): > 1900
fold change (FC) [10]: 0.555
fold change (FC) [11]: 0.441
fold change (FC) [12]: 0.384
fold change (FC) [13]: 0.563
fold change (FC) [14]: 0.444
fold change (FC) [15]: 0.326
fold change (FC) [16]: 0.829
fold change (FC) [17]: 0.586
fold change (FC) [18]: 0.42

fold change (FC) [19]: 0.959
fold change (FC) [20]: 0.835
fold change (FC) [21]: 0.599
SMILES: Cl.Cl.Fc1ccc(-c2cc(-c3ccc4cc(O[C@H]5CCNC5)c(-c5ccc(F)c(F)c5)cc4n3)ccc2O[C@H]2CCNC2)cc1

fold change (FC) [2]: 0.417
fold change (FC) [3]: 0.312
fold change (FC) [5]: 0.953
fold change (FC) [6]: 0.257
fold change (FC) [8]: 0.406
fold change (FC) [9]: 0.395
fold change (FC) [22]: 0.2
fold change (FC) [23]: 0.212
fold change (FC) [24]: 0.303
SMILES: Cc1cc(F)ccc1-c1cc(NC(=O)c2ccc(O[C@H]3CCNC3)c(-c3ccc(F)c(F)c3)c2)ccc1O[C@H]1CCNC1.Cl.Cl
